pIC50: −log10 of the molar value.

Protein sequences, listed by entry. Tags and fused reporters are not part of them.
UniProt Q8CA95, whole entry: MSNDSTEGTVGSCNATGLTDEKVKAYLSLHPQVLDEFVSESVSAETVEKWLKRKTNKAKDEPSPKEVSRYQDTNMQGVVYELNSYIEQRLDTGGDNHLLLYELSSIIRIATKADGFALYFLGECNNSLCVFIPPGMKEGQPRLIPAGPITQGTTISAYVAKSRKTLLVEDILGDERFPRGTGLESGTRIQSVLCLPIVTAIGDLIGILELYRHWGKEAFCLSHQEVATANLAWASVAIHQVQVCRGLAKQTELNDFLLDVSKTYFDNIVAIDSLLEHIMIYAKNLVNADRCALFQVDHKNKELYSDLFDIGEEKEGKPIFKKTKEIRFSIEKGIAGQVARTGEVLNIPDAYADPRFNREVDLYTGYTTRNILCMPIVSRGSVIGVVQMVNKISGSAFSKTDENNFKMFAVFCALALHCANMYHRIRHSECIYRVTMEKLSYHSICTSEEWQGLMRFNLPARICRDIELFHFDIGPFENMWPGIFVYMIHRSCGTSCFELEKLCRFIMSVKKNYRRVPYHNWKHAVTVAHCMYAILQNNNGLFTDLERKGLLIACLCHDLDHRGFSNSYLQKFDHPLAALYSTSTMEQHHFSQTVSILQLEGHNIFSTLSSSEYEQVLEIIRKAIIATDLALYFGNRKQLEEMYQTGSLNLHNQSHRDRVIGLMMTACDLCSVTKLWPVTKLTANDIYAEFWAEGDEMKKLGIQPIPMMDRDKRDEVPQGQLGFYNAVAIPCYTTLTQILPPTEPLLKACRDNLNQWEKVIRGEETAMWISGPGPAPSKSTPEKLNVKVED

For the test, the target named is PDE10 (Mus musculus, UniProt Q8CA95). Briefly: PDE10 enzyme inhibition (IMAP TR-FRET assay). The class given is biochemical. As to conditions: Table 8A. A general note: Time-resolved FRET reads energy transfer from a long-lived donor to a nearby acceptor.

A word on the pIC50: it is −log10 of the IC50, conventionally taken in molar units. For the compound `COc1ncccc1-c1nccnc1OC1CN(c2ccc3ccccc3n2)C1`, the pIC50 was 7.08.

Source of the values: US8497265B2, “Heteroaryloxyheterocyclyl compounds as PDE10 inhibitors” (Amgen Inc., priority 2010, dated 2013).
